From US12507703B2, “Methods, devices and compositions for preserving human milk” (The Trustees of Princeton University, priority 2023, dated 2025)

Test system: lipase
Test: Lipase/lipolysis assay (EnzChek Lipase Substrate, quenched BODIPY-fatty acid conjugate) on stored human milk; further: test concentration or dose not given here
Conditions: stored 1 week at −20° C.
[1] = compound added to fresh human milk, thawed at room temperature, RFU <400 considered a hit
[2] = Biolog PM4 compound added to fresh human milk, RFU <400 = hit
[3] = Food Additive Library compound added to fresh human milk, thawed at room temperature, RFU of <400 considered a hit
[4] = Biolog PM1 compound added to fresh human milk, RFU <400 = hit
[5] = Food-Sourced Compound Library compound added to fresh human milk, thawed at room temperature, RFU <400 considered a hit
[6] = Biolog PM2a compound added to fresh human milk, RFU <400 = hit

## Cc1cccc(O)c1O [Compound 3-Methylcatechol, 3-Methylcatechol]
[1]
  Lipase (RFU): 1052.094 RFU

## CC(=O)[C@H]1CC[C@H]2[C@@H]3CC=C4C[C@@H](OS(=O)(=O)[O-])CC[C@]4(C)[C@H]3CC[C@]12C.[Na+] [Pregnenolone monosulfate (sodium)]
[1]
  Lipase (RFU): 649.264 RFU

## Nc1nc2c(ncn2[C@@H]2O[C@H](CO)[C@@H](O)[C@H]2OP(=O)(O)O)c(=O)[nH]1 [Guanosine-2′-monophosphate]
[2]
  Lipase (RFU): 884.9602 RFU

## CCCCCCCCCCCCCCC(=O)O [Pentadecanoic acid]
[3]
  Lipase (RFU): 930.9364 RFU
[1]
  Lipase (RFU): 941.0256 RFU

## Cn1c(=O)ccn([C@@H]2O[C@H](CO)[C@@H](O)[C@H]2O)c1=O [Compound 3-Methyluridine, 3-Methyluridine]
[1]
  Lipase (RFU): 1048.324 RFU

## CC(C)=CCC/C(C)=C/COc1c2occc2cc2ccc(=O)oc12 [8-Geranyloxypsoralen]
[1]
  Lipase (RFU): 922.8975 RFU

## CC(=O)O.Cc1cc2c(C(C)C)c(O)c(O)c(C=O)c2c(O)c1-c1c(C)cc2c(C(C)C)c(O)c(O)c(C=O)c2c1O [(R)-(−)-Gossypol acetic acid]
[1]
  Lipase (RFU): 580.7646 RFU

## C[C@H](O)[C@@H](O)[C@@H](O)[C@H](O)C=O [L-Fucose]
[4]
  Lipase (RFU): 882.8257 RFU

## COc1cc(C[C@H]2C(=O)OC[C@@H]2Cc2ccc(OC)c(OC)c2)ccc1O [Arctigenin]
[1]
  Lipase (RFU): 811.3139 RFU

## C=C1[C@H](OC(=O)/C=C(\C)CC)C[C@@H](C(C)C)[C@@H]2[C@@H]([C@@H](C)OC(C)=O)C(=O)C[C@@H]12 [Tussilagone]
[1]
  Lipase (RFU): 870.5099 RFU

## c1ccc2c(c1)Cc1ccccc1-2 [Fluorene]
[1]
  Lipase (RFU): 1185.437 RFU

## CC(=O)OCC1=C[C@@H]2OC(=O)C3=CO[C@@H](O[C@@H]4O[C@H](CO)[C@@H](O)[C@H](O)[C@H]4O)[C@H]1[C@@H]32 [Asperuloside]
[1]
  Lipase (RFU): 1045.558 RFU

## CCCCCCCCCCCCCCCC(=O)NCc1ccccc1 [N-Benzylpalmitamide]
[1]
  Lipase (RFU): 825.0433 RFU

## CSCC[C@H](NC(C)=O)C(=O)O [N-Acetyl-L-methionine]
[3]
  Lipase (RFU): 878.6459 RFU

## CC(=O)c1ccc(C)cc1 [4′-Methylacetophenone]
[3]
  Lipase (RFU): 1064.978 RFU

## OC[C@@H](O)[C@@H](O)[C@@H](O)CO [Adonitol]
[4]
  Lipase (RFU): 916.8639 RFU

## Cc1cc(C)c(O)c(C)c1 [2,4,6-Trimethylphenol]
[3]
  Lipase (RFU): 941.1667 RFU
[1]
  Lipase (RFU): 912.9048 RFU

## CCCCCCCCCCCCCc1cccc(O)c1C(=O)O [Ginkgolic Acid (C13:0)]
[1]
  Lipase (RFU): 844.1046 RFU

## Nc1nc2c(nc(O)n2[C@H]2C[C@H](O)[C@@H](CO)O2)c(=O)[nH]1 [8-Hydroxy-2′-deoxyguanosine]
[1]
  Lipase (RFU): 909.8926 RFU

## COc1ccc(-c2cc(=O)c3c(O)c(OC)c(OC)c(OC)c3o2)cc1 [Gardenin B]
[5]
  Lipase (RFU): 1121.926 RFU

## O=C(O)[C@@H]1CCCN1O [Hydroxy-L-Proline]
[6]
  Lipase (RFU): 1019.101 RFU

## Cc1cc2nc3c(=O)[nH]c(=O)nc-3n(C[C@H](O)[C@H](O)[C@H](O)COP(=O)(O)OP(=O)(O)OC[C@H]3O[C@@H](n4cnc5c(N)ncnc54)[C@H](O)[C@@H]3O)c2cc1C
[1]
  Lipase (RFU): 1000.841 RFU

## C[C@H]1[C@H](C)CC[C@]2(C(=O)O)CC[C@]3(C)C(=CC[C@@H]4[C@@]5(C)C[C@@H](O)[C@H](O)[C@@](C)(CO)[C@@H]5CC[C@]43C)[C@H]12 [Asiatic acid]
[1]
  Lipase (RFU): 809.8605 RFU

## O=c1cc(-c2ccc(O)cc2)oc2cc(O)ccc12 [7,4′-Dihydroxyflavone]
[1]
  Lipase (RFU): 997.8526 RFU

## O=C(O)c1cccnc1 [Niacin]
[3]
  Lipase (RFU): 937.0411 RFU

## NCc1c[nH]c2ccccc12 [Indole-3-methanamine]
[5]
  Lipase (RFU): 774.4333 RFU

## C[C@@H](O)[C@H](O)[C@H](O)[C@@H](O)C=O [D-Fucose]
[6]
  Lipase (RFU): 779.358 RFU

## CCCCCCC/C=C/C(=O)O [(E)-2-Decenoic acid]
[3]
  Lipase (RFU): 763.8796 RFU

## N[C@@H](CSC[C@H](N)C(=O)O)C(=O)O [Lanthionine]
[2]
  Lipase (RFU): 968.1267 RFU

## O=S(=O)(O)CCO [2-Hydroxyethane Sulfonic Acid]
[2]
  Lipase (RFU): 784.5377 RFU

## O=c1c(O)c(-c2ccc(O[C@@H]3O[C@H](CO)[C@@H](O)[C@H](O)[C@H]3O)c(O)c2)oc2cc(O)cc(O)c12 [Spiraeoside]
[5]
  Lipase (RFU): 861.8613 RFU

## C[C@@H](OP(=O)(O)O)[C@H](N)C(=O)O [O-Phospho-L-Threonine]
[2]
  Lipase (RFU): 752.2541 RFU

## O=C(O)CCc1c[nH]c2ccccc12 [3-Indolepropionic acid]
[5]
  Lipase (RFU): 1063.564 RFU

## O=C(O)CCc1cnc[nH]1 [Imidazole-5-propionic acid]
[5]
  Lipase (RFU): 1084.262 RFU

## Oc1cc(O)c2c(c1)O[C@H](c1ccc(O)c(O)c1)[C@H](O)[C@H]2c1c(O)cc(O)c2c1O[C@H](c1ccc(O)c(O)c1)[C@H](O)[C@H]2c1c(O)cc(O)c2c1O[C@H](c1ccc(O)c(O)c1)[C@H](O)C2 [Procyanidin C1]
[1]
  Lipase (RFU): 962.3906 RFU

## COC(=O)Cc1ccc(C(C)(C)C)cc1 [Methyl p-tert-butylphenylacetate]
[3]
  Lipase (RFU): 1050.221 RFU

## Cc1ccccc1C=O [Compound 2-Methylbenzaldehyde, 2-Methylbenzaldehyde]
[1]
  Lipase (RFU): 859.065 RFU

## C[C@H]1[C@H](C)CC[C@]2(C(=O)O)CC[C@]3(C)C(=CC[C@@H]4[C@@]5(C)C[C@@H](O)[C@H](O)[C@@](C)(CO)[C@@H]5[C@H](O)C[C@]43C)[C@H]12 [Madecassic acid]
[1]
  Lipase (RFU): 813.8427 RFU

## CC(=O)N[C@@H](CCC(=O)O)C(=O)O [N-Acetyl-L-Glutamic Acid]
[6]
  Lipase (RFU): 1040.727 RFU

## O=NN(CCCl)C(=O)NCCCl [Carmustine]
[1]
  Lipase (RFU): 1282.739 RFU

## N[C@@H](CS)C(=O)O [L-Cysteine]
[2]
  Lipase (RFU): 873.2094 RFU
Biolog PM5 compound added to fresh human milk, RFU <400 = hit
  Lipase (RFU): 793.6132 RFU
[3]
  Lipase (RFU): 860.7165 RFU
[1]
  Lipase (RFU): 937.0882 RFU

## O=CC[C@@H](O)[C@H](O)[C@H](O)COP(=O)(O)O [2-Deoxy-D-Glucose 6-Phosphate]
[2]
  Lipase (RFU): 1037.931 RFU

## N[C@@H](Cc1cc(I)c(Oc2ccc(O)c(I)c2)c(I)c1)C(=O)O [Liothyronine (sodium)]
[1]
  Lipase (RFU): 679.7045 RFU

## CC(=O)c1cc(C)ccc1O [2′-Hydroxy-5′-methylacetophenone]
[3]
  Lipase (RFU): 953.8722 RFU

## CCCCCCCCCCCCCCCC(=O)OC[C@H](O)[C@H]1OC(=O)C(O)=C1O [Ascorbyl palmitate]
[3]
  Lipase (RFU): 1048.408 RFU

## O=Cc1cc(O)ccc1O [2,5-Dihydroxybenzaldehyde]
[1]
  Lipase (RFU): 921.2732 RFU

## O=C(O)CC[C@H](O)C(=O)O.[Na].[Na] [L-2-Hydroxyglutaric acid (disodium)]
[1]
  Lipase (RFU): 928.8198 RFU
